Where two headings read alike, the source gives them in different places.
What was measured:
PDK-1 = PDK-1 (Homo sapiens, UniProt O15530); experiment: PDK-1 kinase inhibition ELISA assay (phosphorylation of His6-tagged SGK1 S422D by PDK-1); type: biochemical; details: read-out: Average IC50; PDK-1 ELISA, Table 11
S6K = S6K (Homo sapiens, UniProt P23443); experiment: S6K kinase inhibition, Z'-LYTE FRET assay; details: read-out: S6K IC50; 100 μM ATP
PKA = PKA (Homo sapiens, UniProt P17612); experiment: PKA kinase inhibition, Z'-LYTE FRET assay; details: read-out: PKA IC50

Protein sequences, listed by entry. Tags and fused reporters are not part of them. Lines headed by an entry give the natural chain unless they say otherwise; changes in a name come on top.
UniProt O15530, whole entry: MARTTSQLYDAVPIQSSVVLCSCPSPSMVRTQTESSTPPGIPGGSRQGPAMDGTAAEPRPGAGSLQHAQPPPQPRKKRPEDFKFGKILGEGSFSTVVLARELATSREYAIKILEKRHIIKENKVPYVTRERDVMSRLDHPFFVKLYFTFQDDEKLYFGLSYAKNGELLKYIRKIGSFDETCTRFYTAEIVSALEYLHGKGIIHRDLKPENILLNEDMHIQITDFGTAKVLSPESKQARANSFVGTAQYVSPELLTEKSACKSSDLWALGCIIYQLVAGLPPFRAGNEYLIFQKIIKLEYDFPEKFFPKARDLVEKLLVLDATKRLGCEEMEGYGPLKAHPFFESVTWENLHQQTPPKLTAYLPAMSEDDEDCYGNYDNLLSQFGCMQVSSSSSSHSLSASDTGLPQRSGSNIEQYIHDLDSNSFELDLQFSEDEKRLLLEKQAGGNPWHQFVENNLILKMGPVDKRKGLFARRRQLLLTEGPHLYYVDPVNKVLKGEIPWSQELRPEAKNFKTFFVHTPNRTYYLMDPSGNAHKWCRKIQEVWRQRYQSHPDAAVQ
UniProt P23443, whole entry: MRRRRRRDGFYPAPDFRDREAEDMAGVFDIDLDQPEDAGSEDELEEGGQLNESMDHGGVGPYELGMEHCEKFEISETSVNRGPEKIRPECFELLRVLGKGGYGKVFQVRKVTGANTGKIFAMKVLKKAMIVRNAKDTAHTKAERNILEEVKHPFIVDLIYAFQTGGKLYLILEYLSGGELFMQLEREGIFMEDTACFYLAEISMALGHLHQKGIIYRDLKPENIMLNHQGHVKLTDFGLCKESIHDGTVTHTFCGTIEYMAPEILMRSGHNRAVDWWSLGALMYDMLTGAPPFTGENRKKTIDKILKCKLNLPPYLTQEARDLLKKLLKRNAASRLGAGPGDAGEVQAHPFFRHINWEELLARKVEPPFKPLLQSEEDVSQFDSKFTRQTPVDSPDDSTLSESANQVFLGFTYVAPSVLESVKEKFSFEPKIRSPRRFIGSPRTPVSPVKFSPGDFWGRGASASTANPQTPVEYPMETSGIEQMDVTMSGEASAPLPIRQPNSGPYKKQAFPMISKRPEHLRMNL

IC50 (PDK-1): 0.823 µM
IC50 (S6K): > 2 µM
IC50 (PKA; 20 μM ATP): > 4 µM
IC50 (PKA; 100 μM ATP): > 2 µM
Structure (SMILES): CNc1nc(-c2cncc(OC[C@@H](N)Cc3ccccc3)c2)cc2c1cnc1cc(OC)c(OC)cc12

Reference: patent US20080293712A1, “Benzo[C][2,7]Naphtyridine Derivatives, Methods of Making Thereof and Methods of Use Thereof” (WYETH, priority 2007, published 2008)
